Measured affinities in a library of Ab-14 heavy chain variants

Data: MIT Lincoln Laboratory AlphaSeq set, Li et al. 2023, doi:10.1038/s41467-023-39022-2, as distributed in FLAb.

Binding partner: SARS-CoV-2 spike HR2 peptide, sequence PDVDLGDISGINAS.

The variants keep the light chain, the linker and the frameworks of Ab-14 (scFv order VH, the linker GGGGSGGGGSGGGGS, VL).
VH: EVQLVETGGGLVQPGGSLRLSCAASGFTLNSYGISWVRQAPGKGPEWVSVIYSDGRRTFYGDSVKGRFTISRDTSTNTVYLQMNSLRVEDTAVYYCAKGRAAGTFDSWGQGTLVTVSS
VL: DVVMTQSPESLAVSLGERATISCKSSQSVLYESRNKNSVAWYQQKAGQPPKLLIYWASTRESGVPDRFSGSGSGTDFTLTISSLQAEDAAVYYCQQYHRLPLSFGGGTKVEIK

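These sequences belong to a second round, designed from the earlier measurements on random variants of the parent. Group labels follow the data file (Ctrl: baseline library sampled from a position-specific scoring matrix, with some repeated check sequences; Rand: our label for a block that the file lists under HC and that is probably the random mutants of the ten best first-round binders; En: ensemble of fine-tuned language models; GP: Gaussian process model; GPLM: also part of the Gaussian process libraries; HC: hill climbing; Gen: genetic algorithm; Gibbs: Gibbs sampling; a sequence that several methods proposed may carry one label only). In AlphaSeq, yeast of one mating type display the scFv and yeast of the other type display the target. Binding brings cells together so that they mate, and sequencing counts the barcode pairs among the diploids. Read counts were normalised to the haploid input and turned into Kd by a linear fit to BCL2-family pairs of known affinity, for each replicate. The assay was run in six technical replicates.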

Changes read parent residue, position, new residue, counted from the first residue of the VH shown. This list holds designs with at most six substitutions. Values are apparent Kd, the geometric mean of the replicates that gave a signal; lower means stronger binding. Where no diploid with the target was found in any replicate, the entry reads "not detected": below detection, most likely a poor binder, though not proof of it.

| changes | group | Kd | replicates with signal | control signals |
|---|---|---|---|---|
| R56F/G61Q/G103K | Ctrl | not detected | 0 of 6 | 1 of 18 |
| T28N/R100K/A101T | GPLM_Gibbs | 2.3 nM | 6 of 6 | 0 of 18 |
| T28Q/S31Q/G61A | GPLM_HC | 21 nM | 6 of 6 | 0 of 18 |
| T28S/S31E/A101H | GPLM_Gen | 2.6 nM | 6 of 6 | 0 of 18 |
| N30K/A101V/G103D/D106T | Ctrl | not detected | 0 of 6 | 0 of 18 |
| T28D/G61T/R100K/A101N | GP_Gibbs | 830 pM | 6 of 6 | 0 of 18 |
| T28S/G61Q/R100V/A101S | GPLM_Gibbs | 57 nM | 6 of 6 | 0 of 18 |
| T28S/S31E/S107R | GPLM_Gen | 550 pM | 6 of 6 | 0 of 18 |
| R56Q/G99N/F105M | Ctrl | not detected | 0 of 6 | 1 of 18 |
| T28G/L29I/F59A/A102M/D106E/S107C | Ctrl | 40 nM | 1 of 6 | 1 of 18 |
| T28H/R56K/A101Q | GP_Gibbs | not detected | 0 of 6 | 0 of 18 |
| G99W/R100D/F105Y | Ctrl | not detected | 0 of 6 | 0 of 18 |
| T28S/G61Q/R100S/A101L/D106I/S107L | Ctrl | not detected | 0 of 6 | 0 of 18 |
| T28V/G61A/R100E | GPLM_Gen | 19 nM | 6 of 6 | 0 of 18 |
| S31Q/G61E/T104F | Rand | not detected | 0 of 6 | 0 of 18 |
| T28V/S53A | GPLM_Gen | 1.2 nM | 6 of 6 | 2 of 18 |
| T28G/G61A/R100N | GPLM_Gen | 10 nM | 6 of 6 | 0 of 18 |
| S31E/G103V/F105D/S107D | Rand | not detected | 0 of 6 | 0 of 18 |
| R56M/G61T/R100A/G103T | Ctrl | 1.7 µM | 1 of 6 | 0 of 18 |
| T28Q/F59A/G61Q | GP_HC | 50 nM | 1 of 6 | 0 of 18 |
| G61Q/K65R/S107L | Ctrl | 530 nM | 1 of 6 | 0 of 18 |
| R56V/G61A/R100Q | Ctrl | 9.6 nM | 6 of 6 | 1 of 18 |
| T28S/G61I/R100Q/S107A | GPLM_Gen | 1.3 nM | 6 of 6 | 0 of 18 |
| T28Q/S31D/A101L/D106I | GP_HC | not detected | 0 of 6 | 0 of 18 |
| T28G/G61A/A101E/S107T | GP_Gibbs | not detected | 0 of 6 | 0 of 18 |
| T28D/S53A/G103A | Ctrl | 30 nM | 6 of 6 | 1 of 18 |
| T28N/G61Q/R100N | GP_Gen | 6.5 nM | 6 of 6 | 0 of 18 |
| R56N/S63A/A101E/T104A/F105W/S107Q | Ctrl | not detected | 0 of 6 | 0 of 18 |
| R56L/G61A/R100N | GP_Gibbs | 850 pM | 6 of 6 | 0 of 18 |
| G61S/G103V/S107L | GP_HC | not detected | 0 of 6 | 0 of 18 |
| Y32M/R56L/A102G | Ctrl | 16 nM | 1 of 6 | 0 of 18 |
| T28Q/G61I/R100E | GP_Gen | 33 nM | 5 of 6 | 0 of 18 |
| T28D/G61L/S63Q/R100N/A101T | GP_Gibbs | 3.4 nM | 6 of 6 | 0 of 18 |
| T28D/S31E/R100H | GP_Gen | 1.0 nM | 6 of 6 | 0 of 18 |
| S31E/G61S/A101P/A102S/T104L | Ctrl | 87 nM | 1 of 6 | 0 of 18 |
| T28N/S31T/R100Q | GPLM_Gibbs | 9.1 nM | 6 of 6 | 0 of 18 |
| L29V/T104F | Ctrl | not detected | 0 of 6 | 0 of 18 |
| T28E/G61S/R100Q/S107D | GP_Gibbs | 7.3 nM | 6 of 6 | 1 of 18 |
| T28C/I34V/R56V/S107M | Ctrl | not detected | 0 of 6 | 0 of 18 |
| G26M/T28S/G61K/R100N/A101E | GP_Gibbs | 33 nM | 6 of 6 | 0 of 18 |
| N30E/D106S | Ctrl | not detected | 0 of 6 | 0 of 18 |
| T28E/S63Q/A101N | GP_Gen | 5.0 nM | 1 of 6 | 0 of 18 |
| R56Y/R100E | Ctrl | 82 nM | 3 of 6 | 0 of 18 |
| T28L/S31D/G61A/A101T | GPLM_Gen | 38 nM | 6 of 6 | 0 of 18 |
| T28G/S31D/G61I/S63H/R100K | GP_HC | not detected | 0 of 6 | 0 of 18 |
| T28N/S63K/R100Q/A101T | GP_Gibbs | 7.5 nM | 6 of 6 | 0 of 18 |
| R100F/T104C/S107N | Ctrl | not detected | 0 of 6 | 0 of 18 |
| T28S/S31E/G61H/A101T/S107T | GP_Gen | 140 pM | 6 of 6 | 0 of 18 |
| T28D/G61S/S63R/R100K | GP_Gen | 1.8 nM | 6 of 6 | 1 of 18 |
| G61S/G99A/D106V | Ctrl | 460 pM | 6 of 6 | 1 of 18 |
| S31G/D106N | Ctrl | not detected | 0 of 6 | 0 of 18 |
| T28E/S53A/S63Q/A101T | GP_Gen | 460 pM | 6 of 6 | 0 of 18 |
| T28A/G61D/R100Q/A101T | GP_HC | 5.4 nM | 6 of 6 | 0 of 18 |
| T28E/S31M/G61A/R100N | GPLM_Gibbs | 3.2 nM | 6 of 6 | 0 of 18 |
| G61M/S63K/K65R/D106W | Ctrl | 8.4 nM | 1 of 6 | 0 of 18 |
| G61A/A101S | GPLM_Gen | 12 nM | 6 of 6 | 0 of 18 |
| T28D/R56K/S63H/A101T | GP_Gen | 3.1 nM | 6 of 6 | 0 of 18 |
| T28W/S53A/A101T | GP_Gen | 11 nM | 6 of 6 | 1 of 18 |
| R56K/G103V | Ctrl | not detected | 0 of 6 | 0 of 18 |
| S31D/F59L/G61I | GP_HC | not detected | 0 of 6 | 0 of 18 |
| T28S/S31E/G61A/S63A/A101T/S107K | GP_Gibbs | not detected | 0 of 6 | 1 of 18 |
| N30E/S53A/R100Q/S107C | GP_Gibbs | 40 nM | 2 of 6 | 0 of 18 |
| T28S/S63N/R100M/A101Q | GP_Gibbs | 2.2 nM | 6 of 6 | 0 of 18 |
| T28S/S31E/G61C/R100Q/A101T | GP_Gibbs | 2.0 nM | 6 of 6 | 1 of 18 |
| T28D/S31E/S53A/G61A/R100K/S107Q | En_HC | 190 pM | 6 of 6 | 0 of 18 |
| T28Q/S31E/R100E/S107T | GP_Gen | 3.4 nM | 6 of 6 | 0 of 18 |
| T28S/S31D/A101E/S107T | GPLM_Gen | 440 pM | 6 of 6 | 0 of 18 |
| N30E/S53A/S63R | GPLM_Gen | not detected | 0 of 6 | 0 of 18 |
| S31E/G61S/T104K | GPLM_HC | 93 nM | 1 of 6 | 0 of 18 |
| T28N/F59A/S63R/A101Q | GP_Gibbs | 2.3 nM | 3 of 6 | 0 of 18 |
| S31Q/G61A/R100N | GPLM_HC | 5.5 nM | 6 of 6 | 0 of 18 |
| T28N/G61A/S63E/A101T | GP_Gen | 4.4 nM | 5 of 6 | 0 of 18 |
| T28S/S31D/A101Q/D106W | GP_HC | not detected | 0 of 6 | 0 of 18 |
| F27A/D106F | Ctrl | not detected | 0 of 6 | 0 of 18 |
| G61D/R100S/D106M | Ctrl | not detected | 0 of 6 | 0 of 18 |
| G61V/R100Q/A101V | GPLM_Gen | 7.9 nM | 2 of 6 | 0 of 18 |
| F59A/R100T | Ctrl | 7.0 nM | 6 of 6 | 0 of 18 |
| N30E/S31N/D106I | GPLM_HC | not detected | 0 of 6 | 0 of 18 |

Excerpt, the first 8 entries:

| changes | group | Kd | replicates with signal | control signals |
|---|---|---|---|---|
| R56F/G61Q/G103K | Ctrl | not detected | 0 of 6 | 1 of 18 |
| T28N/R100K/A101T | GPLM_Gibbs | 2.3 nM | 6 of 6 | 0 of 18 |
| T28Q/S31Q/G61A | GPLM_HC | 21 nM | 6 of 6 | 0 of 18 |
| T28S/S31E/A101H | GPLM_Gen | 2.6 nM | 6 of 6 | 0 of 18 |
| N30K/A101V/G103D/D106T | Ctrl | not detected | 0 of 6 | 0 of 18 |
| T28D/G61T/R100K/A101N | GP_Gibbs | 830 pM | 6 of 6 | 0 of 18 |
| T28S/G61Q/R100V/A101S | GPLM_Gibbs | 57 nM | 6 of 6 | 0 of 18 |
| T28S/S31E/S107R | GPLM_Gen | 550 pM | 6 of 6 | 0 of 18 |

The parent sequence was in this pool as ten entries: three were never detected, three once, and four in most replicates, with averages from 2.2 nM to 240 nM. As a blank, each scFv also met three strains without target: over all heavy chain designs, 1% of these pairings were detected, typically at 120 nM and seldom below 7.0 nM. Also given: how often the same scFv was detected with the empty control strains. Values of this round are not directly comparable with the first-round values of the same sequences. The authors' rule: three or more of the six replicates give a measured affinity, fewer mean a poor binder.